Source: publication PMC7988493

B1: unnamed (parent)
chain 1: MAEKAGSTFSHLLVPILLLIGWIVGCIIMIYVVFS
chain 2: MENAHTKTVEEVLGHFGVNESTGLSLEQVKKLKERWGSNELPAEEGKTLLELVIEQFEDLLVRILLLAACISFVLAWFEEGEETITAFVEPFVILLILVANAIVGVWQERNAENAIEALKEYEPEMGKVYRQDRKSVQRIKAKDIVPGDIVEIAVGDKVPADIRLTSIKSTTLRVDQSILTGESVSVIKHTDPVPDPRAVNQDKKNMLFSGTNIAAGKAMGVVVATGVNTEIGKIRDEMVATEQERTPLQQKLDEFGEQLSKVISLICIAVWIINIGHFNDPVHGGSWIRGAIYYFKIAVALAVAAIPEGLPAVITTCLALGTRRMAKKNAIVRSLPSVETLGCTSVICSDKTGTLTTNQMSVCRMFILDRVEGDTCSLNEFTITGSTYAPIGEVHKDDKPVNCHQYDGLVELATICALCNDSALDYNEAKGVYEKVGEATETALTCLVEKMNVFDTELKGLSKIERANACNSVIKQLMKKEFTLEFSRDRKSMSVYCTPNKPSRTSMSKMFVKGAPEGVIDRCTHIRVGSTKVPMTSGVKQKIMSVIREWGSGSDTLRCLALATHDNPLRREEMHLEDSANFIKYETNLTFVGCVGMLDPPRIEVASSVKLCRQAGIRVIMITGDNKGTAVAICRRIGIFGQDEDVTSKAFTGREFDELNPSAQRDACLNARCFARVEPSHKSKIVEFLQSFDEITAMTGDGVNDAPALKKAEIGIAMGSGTAVAKTASEMVLADDNFSTIVAAVEEGRAIYNNMKQFIRYLISSNVGEVVCIFLTAALGFPEALIPVQLLWVNLVTDGLPATALGFNPPDLDIMNKPPRNPKEPLISGWLFFRYLAIGCYVGAATVGAAAWWFIAADGGPRVSFYQLSHFLQCKEDNPDFEGVDCAIFESPYPMTMALSVLVTIEMCNALNSLSENQSLLRMPPWENIWLVGSICLSMSLHFLILYVEPLPLIFQITPLNVTQWLMVLKISLPVILMDETLKFVARNYLEPAILE

Variants of: B1
Experiment: FRET efficiency (FLT measurement excited at 481 nm) in live cells
Conditions: with partner chain of the complex shown; 5 μg/well of each double-mutant DWORF DNA transfected into a stable cell line expressing GFP–SERCA2a; n = 3; parent: 0.14; read off a plot

Row | Variant | response
1 | chain 1 V14A Y31A | 0.14

Variants of: B1
Experiment: FRET efficiency (fluorescence lifetime) in live cells
Conditions: with partner chain of the complex shown; 5 μg/well of each mutant DWORF DNA transfected into a stable cell line expressing GFP–SERCA2a; n = 3; parent: 0.14; read off a plot

Row | Variant | response
2 | chain 1 G25A | 0.14
3 | chain 1 L17A | 0.14
4 | chain 1 V14A | 0.15
5 | chain 1 Y31A | 0.14
6 | chain 1 C26A | 0.14
7 | chain 1 L18A | 0.14
